For orientation: IC50 means the concentration needed to halve the response being measured. Higher therefore signals weaker potency in that assay. As usually defined, the Kd is the free concentration of one partner at which half of the binding sites on the other are occupied at equilibrium, for simple one-to-one binding. In general, koff refers to the rate constant with which the complex falls apart. A higher koff goes with fast dissociation. As usually defined, the kon is the rate constant with which the complex forms.

By UniProt entry, the sequences of proteins in these tests, tags left out. Residues count along the entry.
UniProt Q9Y275, 134-285 limits assumed: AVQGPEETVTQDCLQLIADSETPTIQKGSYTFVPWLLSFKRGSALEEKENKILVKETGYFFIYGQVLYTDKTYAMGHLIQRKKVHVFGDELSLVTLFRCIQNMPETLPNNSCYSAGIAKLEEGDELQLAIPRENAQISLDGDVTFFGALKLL
UniProt Q9WU72, 127-309 limits assumed: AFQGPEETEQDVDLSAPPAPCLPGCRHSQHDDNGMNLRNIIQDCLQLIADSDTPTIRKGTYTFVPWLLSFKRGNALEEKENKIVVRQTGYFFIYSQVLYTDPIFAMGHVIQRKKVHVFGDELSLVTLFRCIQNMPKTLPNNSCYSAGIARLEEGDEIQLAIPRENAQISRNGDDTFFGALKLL

The target of assay [1] is T1, soluble human BLyS (human, UniProt Q9Y275 134-285).
T1 construct: also called hBLyS; human BAFF (BLyS)
The experiment in a line: DELFIA competition, Eu-hBLyS binding to coated TACI. How it is done:
(§1) Anti-BLyS mAb receptor blocking assay was evaluated using Perkin Elmer's DELFIA assay technology (dissociation-enhanced lanthanide fluorescence immunoassay) which is a time-resolved fluorescence (TRF) intensity technology. […] DELFIA yellow 96-well low auto-fluorescent assay plates (PE, Cat #AAAND-0001) were coated overnight at 4° C. with 0.1 μg/well of select human or mouse BLyS cognate receptor chimera from R&D Systems (BCMA, BR3 and TACI). After 5× washing with 200 ul/well of DELFIA 1× wash solution (PE, Cat #4010-0010), plates were blocked with 3% BSA purified from trace heavy metal amounts (PE, Cat #CR84-100) for 3 hours with shaking at room temperature. Plates were washed again five times at 200 μl/well with DELFIA wash solution.
(§2) After wash, 50 μl/well of BLyS mAbs were added to wells across the plate in a 9 point 1/3-fold dilution titration series starting at 2,000 pM to 0.3 pM. The final 3 wells across the plate served as controls (2 wells contained 2,000 pM mAbs for negative and background controls while the third contained no mAbs for positive control). 50 ul/well of 100 pM BLyS was then added to each well, except the negative-control wells, and plates were briefly spun down. After 18-24 hrs at 4° C., plates were read on PE EnVision plate reader with laser excitation, LANCE/DELFIA top mirror, and emission filter Eu-615 with a delay of 400 μs. Data were fit to four parameter (variable slope) inhibition dose response curve using GraphPad PRISM 5.0 software.

The target of assay [2] is T1, soluble human BLyS. The experiment in a line: blocking of biotinylated soluble hBLyS binding to immobilized mBR3.
Assay [3] has as its target T2, soluble mouse BLyS (mouse, UniProt Q9WU72 127-309).
T2 construct: europium-labelled in DELFIA; also called mBLyS; mouse BAFF (BLyS)
The experiment in a line: DELFIA competition, Eu-mBLyS binding to coated TACI. How it is done: as §1, §2

The next assay has as its target T3, soluble cynomolgus BLyS (cynomolgus, UniProt A0A2K5V2X4 134-285).
T3 construct: Soluble form; also called cyBLyS; Soluble cyBLyS
The experiment in a line: ELISA, soluble cyBLyS. (In general: ELISA stands for enzyme-linked immunosorbent assay.)

The target of assay [4] is T1, soluble human BLyS. Description: Biacore. On the technique in general: In SPR one partner is held on a chip, and binding of the other changes the refractive index at the surface.
Assay [5] has as its target T2, soluble mouse BLyS. Description: Biacore.
Assay [6] concerns the target T1, soluble human BLyS. The experiment in a line: DELFIA competition, Eu-hBLyS binding to coated BR3. How it is done:
as §1, §2

For assay [7], the target named is T2, soluble mouse BLyS. The experiment in a line: DELFIA competition, Eu-mBLyS binding to coated BR3. How it is done:
as §1, §2

Assay [8] addresses T1, soluble human BLyS. Description: DELFIA competition, Eu-hBLyS binding to coated BCMA. How it is done:
as §1, §2

Assay [9] deals with T2, soluble mouse BLyS. The experiment in a line: ELISA, soluble mBLyS.
Another assay addresses T4, human APRIL (human, UniProt O75888 105-250, limits assumed).
T4 construct: Bought recombinant protein; also called hAPRIL
T4 sequence (looked up): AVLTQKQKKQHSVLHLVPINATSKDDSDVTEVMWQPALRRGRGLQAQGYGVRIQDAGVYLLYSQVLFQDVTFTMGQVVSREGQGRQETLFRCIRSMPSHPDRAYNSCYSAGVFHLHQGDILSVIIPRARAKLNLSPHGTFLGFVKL
Description: Biacore, antibody captured, APRIL injected. How it is done: (§3) Recombinant protein NG (Thermo Scientific, Cat #21186) was diluted to 100 μg/ml in 10 mM Sodium Acetate pH 4.0 and then immobilized on the surface of a pre-activated Series S CM4 Biacore chip (GE, Cat #BR-1005-34) using amine coupling. The monoclonal antibodies were captured individually on each of the four CM4 chip flow cells (with flow cell one serving as a reference) by injecting about 5 μg/ml monoclonal antibodies over individual flow cells for 120 seconds at 10 μl/min (yields 1,000-2,000 RU capture). To determine binding of human APRIL (R&D Systems, Cat #5860-AP-010/CF) and mouse APRIL (R&D Systems, Cat #7907-AP-010/CF) to the anti-BLyS antibodies, the APRIL protein as injected manually at 50 nM for 300 seconds at 10 μl/min. Binding response was measured as the difference in total RU increase during 300 second APRIL injection of each individual flow cell and the reference flow cell (e.g., Flow cell 2-1).

The target in assay [10] is T2, soluble mouse BLyS. The experiment in a line: DELFIA competition, Eu-mBLyS binding to coated BCMA. How it is done:
as §1, §2

Assay [11] concerns the target T1, soluble human BLyS. Description: Biacore, antibody captured on chip, BLyS injected, 1:1 model, 25 C. How it is done: (§4) Recombinant protein NG (Thermo Scientific, Cat #21186) was diluted to 100 μg/ml in 10 mM sodium acetate pH 4.0 and then immobilized on the surface of a pre-activated Series S CM5 Biacore chip (GE, Cat #BR-1005-34) using amine coupling. To determine binding kinetics of anti-BLyS antibodies to human BLyS (R&D systems, Cat #2149-BF-010/CF) or mouse BLyS (R&D Systems, Cat #2106-BF-010/CF), the mAbs were captured on each of the four CM5 chip flow cells (with flow cell one serving as a control and reference) by injecting 0.5 μg/ml Abs over individual flow cells for 30 seconds at 10 μl/min (yields ˜100 RU capture). hBLyS or mBLyS was then passed over all four flow cells at 30-50 μl/min for 600 seconds, followed by a dissociation period of 2,400 seconds. After the dissociation period, the chip was regenerated back to baseline by injecting 10 mM glycine pH 1.5 for 120 seconds over the four flow cells. This was repeated for each BLyS injection over 11 injections of a 2/3-fold dilution titration range starting at 20 nM. The entire data set was fit to a 1:1 interaction model to give kₒₙ, koff, and Kd values. The assay was run at 25° C. in 1× biacore running buffer HBS-EP+ (GE, Cat #BR-1006-69).

Assay [12] has as its target T2, soluble mouse BLyS. The description is as above. How it is done:
as §4

The target of assay [13] is T1, soluble human BLyS. Description: ELISA, soluble hBLyS.
Assay [14] deals with T1, soluble human BLyS. The experiment in a line: Biacore T100, binder captured by anti-human Fc, BLyS injected, 1:1 model. How it is done:
(§5) A Series S CM5 Chip (GE Healthcare) was amine coupled with an anti-human Fc capturing antibody (GE Healthcare Human Fc Kit) to >10,000 RUs. Sample antibodies were diluted in 1×HBS-EP+ running buffer to 0.15 ug/mL and injected for 45 seconds at 10 uL/min. Serially diluted human or mouse BLyS (R&D Systems) was injected for 6 minutes at 30 μl/min and dissociation was monitored for 20 minutes. The anti-BLyS and BLyS complex were removed from the capture surface with 3M MgCl₂ for 40 seconds at 10 μl/min. Binding data was reference subtracted with both a negative BLyS binder (commercial Herceptin) and a 0 μM BLyS injection. Biacore Evaluation software was used to fit the data to a 1:1 Binding Model.

Assay [15] has as its target T2, soluble mouse BLyS. The assay is described as above. How it is done:
as §5

The next assay addresses T5, mouse APRIL (mouse, UniProt Q9D777 96-241, limits assumed).
T5 construct: Bought recombinant protein; also called mAPRIL
T5 sequence (looked up): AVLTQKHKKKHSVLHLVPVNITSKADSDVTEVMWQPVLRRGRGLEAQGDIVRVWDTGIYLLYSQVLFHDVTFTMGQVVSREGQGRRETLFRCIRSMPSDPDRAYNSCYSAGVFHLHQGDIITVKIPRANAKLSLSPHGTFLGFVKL
The experiment in a line: Biacore, antibody captured, APRIL injected. How it is done: as §3

B1: 10C11 IgG expressed in HEK293 cells (antibody, V domains shown)
VH: EVQLVQSGAEVKKPGSSVKVSCKASGGTFSSYAISWVRQAPGQGLEWMGRIIPILGIANYAQKFQGRVTITADKSTSTAYMELSRLRSDDTAVYYCARDRFYDILTGYYTYYYGMDVWGQGTTVTVSS
VL: DIVLTQSPGTLSFSPGERATLSCRASQNVANNFLAWFQHSPGQAPRLLIYDASNRATGIPARFSGSGSGTDFTLTISSLQTEDVAVYYCQQYYNLPYTFGQGTKLEIKR
Turning to B1, the IC50 in the assay with soluble human BLyS [1] is below 0.0003 nM; with soluble human BLyS [2], 0.07 nM; with soluble mouse BLyS [3] it was 0.732 nM; with soluble cynomolgus BLyS, 0.07 nM; with soluble human BLyS [6], 0.0335 nM; with soluble mouse BLyS [7] it was above 2 nM. Also, the IC50 was below 0.0003 nM in the assay with soluble human BLyS [8], 0.04 nM with soluble mouse BLyS [9], 0.886 nM in the assay with soluble mouse BLyS [10] and 0.1 nM with soluble human BLyS [13]. Further, the Kd worked out at 0.43 nM with soluble human BLyS [4], 0.0313 nM in the assay with soluble mouse BLyS [5], 0.201 nM with soluble human BLyS [11] and 0.153 nM in the assay with soluble mouse BLyS [12]. For the same molecule, the binding result with human APRIL is on record as “no binding (tested: 50 nM)”. In addition, the koff with soluble human BLyS [11] came to 4.4e-05 s⁻¹; in the assay with soluble mouse BLyS [12], 6.5e-05 s⁻¹. In addition, the kon with soluble human BLyS [11] was determined as 220000 M⁻¹ s⁻¹; with soluble mouse BLyS [12] it was 430000 M⁻¹ s⁻¹.

B2: 1B7 IgG1 F243A/V264A double mutein expressed in Pichia pastoris (antibody, V domains shown)
VH: QVQLVQSGAKVKKPGASAKVSCKASGYTFTSYAMHWVRQAPGQRLEWMGWINAGNGNTKYSQKFQGRVTITRDTSASTAYMELSSLRSEDTAVYYCARAYYDILTGYSVYGMDVWGQGTTVTVSS
VL: EIVLTQSPATLSLSPGERATLSCWTSQGVSGHLAWYQHKRGQAPRLLIYDTSNRATGVPARFSGSGSGTDFTLTISRLEPEDFAVYYCQQYGSSFWTFGQGTKVEIKR
Regarding B2, the 50% inhibitory concentration (IC50) with soluble human BLyS [1] is below 0.0003 nM; with soluble mouse BLyS [3] it was above 2 nM; with soluble human BLyS [6] it was 0.0222 nM; with soluble mouse BLyS [7], above 2 nM; with soluble human BLyS [8], below 0.0003 nM; in the assay with soluble mouse BLyS [10], above 2 nM. Further, the Kd with soluble human BLyS [14] was 0.064 nM; with soluble mouse BLyS [15] it was 0.057 nM; in the assay with soluble human BLyS [11], 0.109 nM; with soluble mouse BLyS [12], 0.082 nM. Besides, the koff stood at 9.61e-05 s⁻¹ with soluble human BLyS [14], 0.000171 s⁻¹ with soluble mouse BLyS [15], 3.1e-05 s⁻¹ with soluble human BLyS [11] and 3.8e-05 s⁻¹ in the assay with soluble mouse BLyS [12]. The kon in the assay with soluble human BLyS [14] came to 1.42e+06 M⁻¹ s⁻¹; with soluble mouse BLyS [15], 2.98e+06 M⁻¹ s⁻¹; with soluble human BLyS [11], 290000 M⁻¹ s⁻¹; in the assay with soluble mouse BLyS [12], 470000 M⁻¹ s⁻¹. The binding result in the assay with mouse APRIL and in the assay with human APRIL was “no binding (tested: 50 nM)” in each case.

B3: 1B7 IgG expressed in HEK293 cells (antibody, V domains shown)
VH: QVQLVQSGAKVKKPGASAKVSCKASGYTFTSYAMHWVRQAPGQRLEWMGWINAGNGNTKYSQKFQGRVTITRDTSASTAYMELSSLRSEDTAVYYCARAYYDILTGYSVYGMDVWGQGTTVTVSS
VL: EIVLTQSPATLSLSPGERATLSCWTSQGVSGHLAWYQHKRGQAPRLLIYDTSNRATGVPARFSGSGSGTDFTLTISRLEPEDFAVYYCQQYGSSFWTFGQGTKVEIKR
As for B3, the IC50 was below 0.0003 nM with soluble human BLyS [1]; 0.91 nM with soluble human BLyS [2]; above 2 nM with soluble mouse BLyS [3]; 0.1 nM with soluble cynomolgus BLyS; 0.0206 nM with soluble human BLyS [6]; above 2 nM with soluble mouse BLyS [7]. The IC50 is below 0.0003 nM in the assay with soluble human BLyS [8], 0.13 nM in the assay with soluble mouse BLyS [9], above 2 nM in the assay with soluble mouse BLyS [10] and 0.1 nM with soluble human BLyS [13]. Moreover, the Kd stood at 1.73 nM with soluble human BLyS [4], 0.0127 nM with soluble mouse BLyS [5], 0.168 nM with soluble human BLyS [11] and 0.103 nM with soluble mouse BLyS [12]. In addition, the binding result in the assay with mouse APRIL and with human APRIL was “no binding (tested: 50 nM)” in each case. Moreover, the koff with soluble human BLyS [11] was found to be 5.3e-05 s⁻¹; with soluble mouse BLyS [12], 5e-05 s⁻¹. The kon came out at 310000 M⁻¹ s⁻¹ with soluble human BLyS [11] and 490000 M⁻¹ s⁻¹ in the assay with soluble mouse BLyS [12].

(Values after patent publication US20170101466A1 (published 2017).)
